Values of other authors, collected in patent US10829649B2, “Methods and coatings for protecting surfaces from bio-fouling species” (priority 2018, dated 2020).

Settings: metal pyrithione salts; cited from earlier work

For barium pyrithione, the water solubility is listed as “about 77 mg per L”.
